Experimental findings from patent US6514969B2, “β-amyloid inhibitors, processes for preparing them, and their use in pharmaceutical compositions” (Boehringer Ingelheim Pharma KG, priority 2000, dated 2003) are described below.

Some compounds may have been tested in ways that are not shown here.

For this test, the system named is Aβ formation in human astroglioma cells (U 373) transfected with human APP751 (U373-K10). The experiment in a line: Inhibition of Aβ formation in medium of APP751-overexpressing U373-K10 cells (ELISA). The conditions noted are these: read-out: IC50 value, about 16 hours pre-incubation, then 4 hours supernatant, ELISA 6E10/6B10.
For `Cc1nc2ccccn2c1CCN1CCC(n2c(=O)[nH]c3ccccc32)CC1`, the IC50 came out at 5 µM.
Regarding `O=c1[nH]c2ccccc2n1C1CCN(CCc2cnc3ccccn23)CC1`, the IC50 stood at 12 µM.
As for `O=c1[nH]c2ccccc2n1C1CCN(CCCc2cnc3ccccn23)CC1`, the IC50 came out at 6 µM.
